Source: patent US20110275102

Columns and labels:
RPRTSTF = target: T1, RPRTSTF
T1 chain: RPRTSTF

RPRTSSF = target: T2, RPRTSSF
T2 chain: RPRTSSF

Crosstide GRPRTSSFAEG = target: T3, Crosstide GRPRTSSFAEG
T3 chain: GRPRTSSFAEG

B1: p70 S6 kinase purified from rat liver (protein)
chain: MRRRRRRDGFYPAPDFRHREAEDMAGVFDIDLDQPEDAGSEDELEEGGQLNESMDHGGVGPYELGMEHCEKFEISETSVNRGPEKIRPECFELLRVLGKGGYGKVFQVRKVTGANTGKIFAMKVLKKAMIVRNAKDTAHTKAERNILEEVKHPFIVDLIYAFQTGGKLYLILEYLSGGELFMQLEREGIFMEDTACFYLAEISMALGHLHQKGIIYRDLKPENIMLNHQGHVKLTDFGLCKESIHDGTVTHTFCGTIEYMAPEILMRSGHNRAVDWWSLGALMYDMLTGAPPFTGENRKKTIDKILKCKLNLPPYLTQEARDLLKKLLKRNAASRLGAGPGDAGEVQAHPFFRHINWEELLARKVEPPFKPLLQSEEDVSQFDSKFTRQTPVDSPDDSTLSESANQVFLGFTYVAPSVLESVKEKFSFEPKIRSPRRFIGSPRTPVSPVKFSPGDFWGRGASASTANPQTPVEYPMETSGIEQMDVTTSGEASAPLPIRQPNSGPYKKQAFPMISKRPEHLRMNL
Vmax (RPRTSTF): 590 U/mg
Vmax (RPRTSSF): 705 U/mg
Vmax (Crosstide GRPRTSSFAEG): 1270 U/mg
